This is a selection: effects in other tests are not listed, and their absence says nothing.
Tested on: Hirsutella rhossiliensis
Assay: Effect of nitrogen source on growth, sporulation and spore germination
Conditions: for Growth mm-in-diam, on agar: nitrogen source 0.3296 g/L nitrogen; for Growth mm-in-diam, on agar / Sporulation 10^3/cm^2, on agar / growth in liquit culture (visual rating): 5 weeks; for Spore germination %, on agar / Sporulation 10^3/cm^2, on agar / growth in liquit culture (visual rating): nitrogen source

## Ammonium nitrate
Isolate ATCC46487
  Growth mm-in-diam, on agar: 35.7 mm-in-diam
  Spore germination %, on agar: 93.3%
  Sporulation 10^3/cm^2, on agar: 10.3 10^3/cm^2
Isolate JA16-1
  Growth mm-in-diam, on agar: 11.0 mm-in-diam
  Spore germination %, on agar: 91.1%
  Sporulation 10^3/cm^2, on agar: 2.3 10^3/cm^2
  growth in liquit culture (visual rating): III (III = hyphae growth or colonies form a pellet, less than 2.5 ml)
Isolate OWVT-1
  Growth mm-in-diam, on agar: 17.2 mm-in-diam
  Spore germination %, on agar: 57.8%
  Sporulation 10^3/cm^2, on agar: 4.6 10^3/cm^2
  growth in liquit culture (visual rating): III (III = hyphae growth or colonies form a pellet, less than 2.5 ml)

— patent US7384629B2, “Biological control of nematodes with Hirsutella minnesotensis” (Regents of the University of Minnesota, priority 2000, dated 2008)
